Values quoted from earlier work as cited in patent publication US20220184087A1, “METHODS AND COMPOSITIONS RELATING TO TREATMENT OF CANCER” (The Penn State Research Foundation, priority 2019, published 2022).

The chains behind the UniProt entries cited, without tags or fusion partners.
UniProt Q00987, whole entry: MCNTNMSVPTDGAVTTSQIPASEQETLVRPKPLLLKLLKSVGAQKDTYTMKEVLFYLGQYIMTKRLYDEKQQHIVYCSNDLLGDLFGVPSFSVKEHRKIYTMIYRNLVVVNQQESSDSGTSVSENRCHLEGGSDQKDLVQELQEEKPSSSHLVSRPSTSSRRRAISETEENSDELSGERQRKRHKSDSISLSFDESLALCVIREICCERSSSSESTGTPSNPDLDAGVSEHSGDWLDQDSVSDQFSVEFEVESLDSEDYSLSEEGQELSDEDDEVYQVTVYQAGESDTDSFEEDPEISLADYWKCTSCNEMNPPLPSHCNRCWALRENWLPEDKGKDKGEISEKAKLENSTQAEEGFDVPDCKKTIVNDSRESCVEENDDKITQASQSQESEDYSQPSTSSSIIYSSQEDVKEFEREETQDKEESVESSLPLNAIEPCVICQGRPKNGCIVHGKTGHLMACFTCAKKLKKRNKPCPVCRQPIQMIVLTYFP

Target: p53-MDM2 and p53-MDM2-MDM4 complexes (Homo sapiens, UniProt Q00987)

## COc1ccc(C2=N[C@@H](c3ccc(Cl)cc3)[C@@H](c3ccc(Cl)cc3)N2C(=O)N2CCNC(=O)C2)c(OC(C)C)c1 [nutlin-3]
  inhibition of p53-MDM2 and p53-MDM2-MDM4 complexes: inhibits
